Measurements published in US20140194321A1 (CELLOMICS, INC., priority 2013, published 2014).

Test system: U937 cells
Experiment: High-content imaging skin sensitizing prediction assay: U937 cells treated 24 h with a range of compound concentrations, CD54 intensity per cell and cell number dose response curves qualified, decision matrix applied
Details: 24 hours compound treatment; for Cell Number Result: qualified dose response curve (increasing/flat/decreasing) of number of cells; for CD54/Cell Result: qualified dose response curve (increasing/flat/decreasing) of CD54 intensity per cell

Row | SMILES | Cell Number Result | CD54/Cell Result | CD54/Cell Result (listed as hexylcinnaldehyde) | Cell Number Result (listed as hexylcinnaldehyde)
1 | N#CCCC(Br)(C#N)CBr (stereo not shown) [2bromo-2bromomethylglutaronitrile] | Decrease | – | – | –
2 | CC(C)O [Isopropanol] | Increase | – | – | –
3 | OCC(O)CO [Glycerol] | Increase | – | – | –
4 | CCCCCC/C(C=O)=C\c1ccccc1 [Hexylcinnaldehyde] | Increase | Increase | increasing | increasing
